{"sequences": {"note": "Sequences of proteins named here, by UniProt entry; tags and fusion partners are left off.", "UniProt P27338, whole entry": "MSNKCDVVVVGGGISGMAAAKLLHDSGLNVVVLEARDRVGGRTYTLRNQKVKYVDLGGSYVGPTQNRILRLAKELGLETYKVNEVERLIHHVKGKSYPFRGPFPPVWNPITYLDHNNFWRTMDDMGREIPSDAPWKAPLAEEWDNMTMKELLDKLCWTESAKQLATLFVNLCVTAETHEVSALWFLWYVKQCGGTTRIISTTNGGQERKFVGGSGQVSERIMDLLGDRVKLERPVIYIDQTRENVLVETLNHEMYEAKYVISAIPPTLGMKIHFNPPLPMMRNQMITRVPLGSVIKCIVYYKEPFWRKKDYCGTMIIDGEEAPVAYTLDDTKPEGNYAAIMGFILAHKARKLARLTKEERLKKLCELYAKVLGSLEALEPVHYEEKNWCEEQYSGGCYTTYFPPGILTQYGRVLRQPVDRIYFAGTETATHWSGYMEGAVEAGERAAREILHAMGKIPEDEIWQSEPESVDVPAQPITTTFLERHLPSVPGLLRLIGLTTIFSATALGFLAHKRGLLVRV"}, "source": "ChEMBL document CHEMBL2331140", "about": "“A novel series of tacrine-selegiline hybrids with cholinesterase and monoamine oxidase inhibition activities for the treatment of Alzheimer's disease” (Eur J Med Chem, 2013)", "molecular_target": "Amine oxidase [flavin-containing] B (Homo sapiens, UniProt P27338)", "conditions": "read-out: INH"}
{"compound": "C#CCN(C)Cc1ccccc1", "note": "[PARGYLINE]", "values": [{"measurement": "inhibition at 0.2 µM", "result": 56.6, "unit": "%"}]}
